Source: US12606541B2, “PPARg modulators and methods of use” (Eisai R&D Management Co., Ltd., priority 2020, dated 2026)
Read-outs that look alike come from different tables or passages of the source.

Chains of the proteins cited; added tags and fusions are not shown. Residues count along the entry.
UniProt P37231, 234-505 limits assumed: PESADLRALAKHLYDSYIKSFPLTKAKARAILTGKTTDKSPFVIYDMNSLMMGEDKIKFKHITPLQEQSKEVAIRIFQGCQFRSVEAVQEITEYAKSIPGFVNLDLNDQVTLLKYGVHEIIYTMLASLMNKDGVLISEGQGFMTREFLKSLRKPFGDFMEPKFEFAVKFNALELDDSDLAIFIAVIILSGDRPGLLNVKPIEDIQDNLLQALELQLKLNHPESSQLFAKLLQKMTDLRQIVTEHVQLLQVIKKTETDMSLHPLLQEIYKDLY

What was measured:
His6-TEV-PPARγ-(234-505) = His6-TEV-PPARγ-(234-505) (Homo sapiens, UniProt P37231); assay: TR-FRET Assay to Measure Co-R Peptide Recruitment to PPARγ
UM-UC-9 engineered cells = assay: Cell proliferation / short-term viability assay, CellTiter-Glo 144 h
Experimental: Cell Seeding for Proliferation Assay
UM-UC-9 engineered cells were cultured in Dulbecco's Modified Eagle Medium (DMEM) supplemented with 10% FBS, 25 mM glucose (high glucose), 4.0 mM L-glutamine, 2.0 mM GlutaMAX™, 1.0 mM pyruvate, 1.0% non-essential amino acids (NEAA) in a 95% humidified incubator at 37° C. with 5% CO2. Cell banks of UM-UC-9 engineered assay-ready cells (ARCs) were prepared from a very active growth stage. Vials of ARCs containing approximately 5×10^6 cells per vial were stored in liquid nitrogen vapor phase cryostorage until use.
For making assay plates, ARCs were recovered from cryostorage, strained in a […] cell strainer, verified for cell viability >90% and counted using a cell counter (Cellometer Auto 1000, Nexelom). Each cell line was seeded into 384-well plates (50 μl/well) using DMEM medium at a density previously determined to be in log growth phase 7 days post-seeding (500 cells/well) using a bulk reagent dispenser (Multidrop™ Combi, Thermo Scientific) with a large-bore plastic-tip cassette pre-sanitized with 70% ethanol. One plate of cells was designated as the pretreatment time-zero (T0) control. Freshly seeded plates were allowed to sit lidded for 30 minutes within a biosafety cabinet for cells to settle distributed within the plate wells uniformly and then placed into an automated incubator (STX110, Liconic) at 37° C., 5% CO2, and 95% relative humidity.
Preparation of Test Compound in Assay-Ready Plate
Compounds were stored in a low-temperature sample archive as 10 mM dimethyl sulfoxide (DMSO) solutions at −20° C. under reduced humidity (−45° C. dew point) and protected from light. All samples in the automated archive are stored in 2D barcoded polypropylene tubes, tracked through a laboratory information management system (LIMS), and have been verified for identity and purity by NMR (Chemistry, H3 Biomedicine) and by LCMS (Analytical Chemistry, H3 Biomedicine) at the time of sample registration. Identity by mass matching and purity are again verified at the time of sample request fulfillment by redundant LCMS methods (acidic and basic separation protocols; Analytical Chemistry, H3 Biomedicine). Samples retrieved from low-temperature archive storage were solubilized by heated sonication (Bransonic® Ultrasonic Bath, Branson), transferred (Microlab Starlet, Hamilton) and serially-diluted (Viaflo Assist, Integra) by low-volume liquid handlers, and tracked in LIMS by automation log files to create a ID barcoded master dose-response plate (MDR) to serve as a standard source for all assay-ready plates (ARP) used within an experiment. ARPs prepared by acoustic transfer (ATS-100, EDC) of nL volumes from the MDR source were heat-sealed (PlateLoc, Agilent) and stored at −20° C. prior to use (<7 days from production). Tracking of liquid transfers via acoustic dispenser log files were used to update the LIMS system for all ARP plate maps.
Measurement of Pretreatment Control Cells and Sample Anti-Proliferative Effects on Treated Cells
On day 0 (pretreatment cells) or day 7 (treated cells), a cell proliferation assay was performed using an automated robotic assay platform (ACell, High-Res Biosolutions). Cell ARP's were removed from incubation, their plate lid discarded, and using a bulk reagent dispenser (Multidrop™ Combi, Thermo Scientific with a small-bore metal-tip cassette) 25 μL (1/2 volume) of Cell Titer-Glo® 2.0 Cell Viability Assay reagent (Promega) was added to wells of columns 1-23 (column 24 will be used as plate background or positive control). Cell ARP's were incubated at room temperature in an automation hotel position for a total of 1.0 minute while the next plate was delivered to the bulk reagent dispenser and then lid-free cell ARP's were returned to incubate at 37° C. for 2.5 hours. […]

[1] = read-out: TR-FRET i-Ag, Co-R peptide (SMRT-ID2) recruitment, top final concentration 20 μM, tested form: mixture of four diastereomers (piperidin)
[2] = read-out: CTGlo 144 h UMUC9.5, G150, tested form: mixture of four diastereomers (piperidin)
[3] = read-out: TR-FRET i-Ag, Co-R peptide (SMRT-ID2) recruitment, top final concentration 20 μM
[4] = read-out: CTGlo 144 h UMUC9.5, G150

Compound	AC50 (His6-TEV-PPARγ-(234-505); [3]) [nM]	IC50 (UM-UC-9 engineered cells; [4]) [nM]	also measured
COc1cc(-c2cc(C(=O)N3CCC(C(=O)NCc4cccc(Cl)c4)CC34CC4)n[nH]2)c(Cl)cn1 (stereo not shown)	–	–	AC50 (His6-TEV-PPARγ-(234-505); read-out: TR-FRET i-Ag, Co-R peptide (SMRT-ID2) recruitment, top final concentration 20 μM, tested form: mixture of enantiomers): 9.8 nM
COc1cc(-c2cc(C(=O)N3CCC(C(=O)NCc4cccc(Cl)c4)CC34CCC4)n[nH]2)c(Cl)cn1 (stereo not shown)	–	–	AC50 (His6-TEV-PPARγ-(234-505); read-out: TR-FRET i-Ag, Co-R peptide (SMRT-ID2) recruitment, top final concentration 20 μM, tested form: mixture of the (S) and (R) enantiomers): 488 nM; IC50 (UM-UC-9 engineered cells; read-out: CTGlo 144 h UMUC9.5, G150, tested form: mixture of the (S) and (R) enantiomers): 185 nM
CCC1CC(C(=O)N[C@H]2CC[C@@](O)(C(F)(F)F)CC2)CCN1C(=O)c1cc(-c2cc(OC)ncc2F)[nH]n1 (single isomer, unassigned)	–	–	AC50 (His6-TEV-PPARγ-(234-505); [1]): 300 nM; IC50 (UM-UC-9 engineered cells; [2]): 630 nM
COc1cc(-c2cc(C(=O)N3CCC(C(=O)NC4CC5COCC(C4)N5C)CC34CC4)n[nH]2)c(F)cn1 (single isomer, unassigned)	621	3280	–
COc1cc(-c2cc(C(=O)N3CCC(C(=O)NC4CCC(C(F)F)CC4)CC3)n[nH]2)c(F)cn1 (single isomer, unassigned)	–	–	AC50 (His6-TEV-PPARγ-(234-505); read-out: TR-FRET i-Ag, Co-R peptide (SMRT-ID2) recruitment, top final concentration 20 μM, listed as 104b): 47.6 nM; IC50 (UM-UC-9 engineered cells; read-out: CTGlo 144 h UMUC9.5, G150, listed as 104a): > 10000 nM; IC50 (UM-UC-9 engineered cells; read-out: CTGlo 144 h UMUC9.5, G150, listed as 104b): 98.6 nM
COc1cc(-c2cc(C(=O)N3CCC(C(=O)NC4CCC(C(F)F)CC4)CC3)n[nH]2)ccn1 (single isomer, unassigned)	–	–	AC50 (His6-TEV-PPARγ-(234-505); read-out: TR-FRET i-Ag, Co-R peptide (SMRT-ID2) recruitment, top final concentration 20 μM, listed as 113a): 14300 nM; AC50 (His6-TEV-PPARγ-(234-505); read-out: TR-FRET i-Ag, Co-R peptide (SMRT-ID2) recruitment, top final concentration 20 μM, listed as 113b): 672 nM; IC50 (UM-UC-9 engineered cells; read-out: CTGlo 144 h UMUC9.5, G150, listed as 113a): > 10000 nM; IC50 (UM-UC-9 engineered cells; read-out: CTGlo 144 h UMUC9.5, G150, listed as 113b): 2400 nM
COc1cc(-c2cc(C(=O)N3CCC(C(=O)NC4CCC(C)CC4)CC3)n[nH]2)ncn1 (single isomer, unassigned)	–	640	AC50 (His6-TEV-PPARγ-(234-505); read-out: TR-FRET i-Ag, Co-R peptide (SMRT-ID2) recruitment, top final concentration 20 μM, listed as 111b): 519 nM
COc1cc(-c2cc(C(=O)N3CC[C@H](C(=O)NC(C)c4nnc(C5CC5)o4)CC34CC4)n[nH]2)c(F)cn1 (single isomer, unassigned)	270	500	–
COc1cc(-c2cc(C(=O)N3CC[C@H](C(=O)NC4CN(C)CCC4F)CC34CC4)n[nH]2)c(F)cn1 (single isomer, unassigned)	–	–	AC50 (His6-TEV-PPARγ-(234-505); [1]): 174 nM; IC50 (UM-UC-9 engineered cells; [2]): 285 nM
COc1cc(-c2cc(C(=O)N3CCC(C(=O)NC4CCC(C(F)(F)F)N(C)C4)CC3)n[nH]2)c(Cl)cn1 (single isomer, unassigned) [Example 248-A]	341	2530	–
COc1cc(-c2cc(C(=O)N3CCC(C(=O)NC4CCC(C(F)(F)F)N(C)C4)CC3)n[nH]2)c(Cl)cn1 (single isomer, unassigned) [Example 248-B]	32.2	207	–
COc1cc(-c2cc(C(=O)N3CCC(C(=O)NC4CCC(C(F)(F)F)OC4)CC3)n[nH]2)c(Cl)cn1 (single isomer, unassigned) [Example 249-A]	29.3	189	–
COc1cc(-c2cc(C(=O)N3CCC(C(=O)NC4CCC(C(F)(F)F)OC4)CC3)n[nH]2)c(Cl)cn1 (single isomer, unassigned) [Example 249-B]	55.5	384	–
COc1cc(-c2cc(C(=O)N3[C@@H]4CC[C@H]3C[C@H](C(=O)NC3CCC(OC)(C(F)(F)F)CC3)C4)n[nH]2)c(Cl)cn1 (single isomer, unassigned) [Example 257-A]	215	264	–
Cc1cc(-c2cc(C(=O)N3CCC(C(=O)NC4CCC(O)(C(F)(F)F)CC4)CC3)n[nH]2)c(F)cn1 (single isomer, unassigned) [Example 263-B]	4240	6960	–
COc1cc(-c2cc(C(=O)N3CC(C)C(C(=O)NCc4cccc(Cl)c4)CC3C)n[nH]2)c(Cl)cn1 (single isomer, unassigned) [Example 266-A]	140	307	–
COc1cc(-c2cc(C(=O)N3[C@@H]4CC[C@H]3C[C@H](C(=O)NC3CCC(OC)(C(F)(F)F)CC3)C4)n[nH]2)c(F)cn1 (single isomer, unassigned) [Example 275-B]	130	250	–
COc1cc(-c2cc(C(=O)N3[C@@H]4CC[C@H]3C[C@H](C(=O)NC3CCC(C(F)(F)F)OC3)C4)n[nH]2)c(F)cn1 (single isomer, unassigned) [Example 280-C]	101	283	–
COc1cc(-c2cc(C(=O)N3C4CCC3CC(C(=O)NC3CCC(C(F)(F)F)N(C)C3)C4)n[nH]2)c(F)cn1 (single isomer, unassigned) [Example 306-D]	–	37.4	–

Second part, led by results:

AC50 (His6-TEV-PPARγ-(234-505); [3]) [nM]	Compound	IC50 (UM-UC-9 engineered cells; [4]) [nM]	also measured
11100	COc1cc(-c2cc(C(=O)N3CCC(C(=O)NC4CCC(C)(O)CC4)CC3)n[nH]2)c(Cl)cn1 (single isomer, unassigned)	> 10000	–
192	COc1cc(-c2cc(C(=O)N3CC[C@H](C(=O)NC4C(C)(C)C(N5CCC(F)(F)C5)C4(C)C)CC34CC4)n[nH]2)c(F)cn1 (single isomer, unassigned)	326	–
4.6	COc1cc(-c2cc(C(=O)N3CC[C@H](C(=O)NC4CCC(N)(C(F)(F)F)CC4)CC34CC4)n[nH]2)c(F)cn1 (single isomer, unassigned)	8.5	–
1230	COc1cc(-c2cc(C(=O)N3CC[C@H](C(=O)NC4CCC(N5CCOCC5)CC4)CC34CC4)n[nH]2)c(F)cn1 (single isomer, unassigned)	1970	–
28	COc1cc(-c2cc(C(=O)N3[C@@H]4CC[C@H]3C[C@H](C(=O)NC3CCC(OC)(C(F)(F)F)CC3)C4)n[nH]2)c(Cl)cn1 (single isomer, unassigned) [Example 257-B]	79.1	–
418	COc1cc(-c2cc(C(=O)N3[C@@H]4CC[C@H]3C[C@H](C(=O)NC3CCC(O)(C(F)(F)F)CC3)C4)n[nH]2)c(Cl)cn1 (single isomer, unassigned) [Example 259-A]	1480	–
6.5	COc1cc(-c2cc(C(=O)N3[C@@H]4CC[C@H]3C[C@H](C(=O)NC3CCC(O)(C(F)(F)F)CC3)C4)n[nH]2)c(Cl)cn1 (single isomer, unassigned) [Example 259-B]	31.3	–
90	Cc1cc(-c2cc(C(=O)N3CCC(C(=O)NC4CCC(O)(C(F)(F)F)CC4)CC3)n[nH]2)c(F)cn1 (single isomer, unassigned) [Example 263-A]	382	–
144	COc1cc(-c2cc(C(=O)N3CC(C)C(C(=O)NCc4cccc(Cl)c4)CC3C)n[nH]2)c(Cl)cn1 (single isomer, unassigned) [Example 266-B]	483	–
5.5	COc1cc(-c2cc(C(=O)N3[C@@H]4CC[C@H]3C[C@H](C(=O)NC3CCC(OC)(C(F)(F)F)CC3)C4)n[nH]2)c(F)cn1 (single isomer, unassigned) [Example 275-A]	11.4	–
6.5	COc1cc(-c2cc(C(=O)N3[C@@H]4CC[C@H]3C[C@H](C(=O)NC3CCC(C(F)(F)F)OC3)C4)n[nH]2)c(F)cn1 (single isomer, unassigned) [Example 280-B]	15.3	–
